Assay results reported in paper PMC7737769, “Pharmacological inhibition of syntenin PDZ2 domain impairs breast cancer cell activities and exosome loading with syndecan and EpCAM cargo” (Journal of Extracellular Vesicles, 2020).

Target: GST-syntenin full length (human) (UniProt O00560)
Assay: FRET; competition with biotinylated SDC2 peptide (HTRF)

SDC2 cognate peptide (competitor in HTRF)
IC50: 30 µM
